# PubChem BioAssay AID504832 (National Center for Advancing Translational Sciences (NCATS), 2011)
# The entries are a selection whose mix differs from that of the whole data set. Records with an inconclusive call do not appear. Where a call stands in place of a potency, no number is given. Active and inactive are the calls of the source. Calls follow the shape of the dose curve; as a rule, active = well fitted inhibition curve with a large enough effect; inconclusive = small, poorly fitted or top-dose-only effect, or another doubt; inactive = no such curve, though single readings can be large or run the other way.
# Assay: Primary qHTS for delayed death inhibitors of the malarial parasite plastid, 48 hour incubation
# Conditions: P. falciparum luciferase growth in erythrocytes; series mostly up to 28.7 µM
# Excerpt: The goal of this screen is to discover new antimalarial compounds that act by inhibiting the development of the apicoplast in the malarial parasite Plasmodium falciparum. The biochemical processes that make this organelle essential for erythrocytic stage parasites are not well understood. However, antibiotics such as azithromycin and tetracycline, which target the apicoplast translational machinery, have a potent antimalarial effect.
# We have developed a cell-based assay that measures parasite growth based on the expression of an integrated copy of a firefly luciferase reporter. To detect small molecules that cause this "delayed death" phenotype, erythrocytes infected with the luciferase-expressing parasites were incubated with compounds for either one or two generations, corresponding to 48 and 96 hours, respectively. Compounds that inhibit parasite growth in the second generation, but not the first, should be enriched in antimalarials that target the apicoplast. Growth inhibition is detected by a decrease in luciferase activity.
# Assay Provider: David Fidock and Eric Ekland, Columbia University
# Keywords: NIH Roadmap, MLPCN, MLI, MLSMR, qHTS, NCGC, qHTS, malaria, luciferase, viability
# Four microliters of culture medium (RPMI 1640 with 0.5% w/v Albumax (GIBCO), 24 mM sodium bicarbonate and 10 ug/mL gentamycin) were dispensed by a Multi-drop Combi into white solid 1536-well plates (Grenier) and 23 nL compound was added by a pin tool. Four microliters of infected erythrocytes (2% hematocrit, 0.1% parasitemia final concentration) in culture medium were dispensed and the plates incubated for 48 hours at 37 C in 5% CO2. Two microliters of luciferase detection reagent was added and luminescence was detected by a ViewLux (PerkinElmer) reader.
# Potency is read from the fitted curve at half-maximal effect.
row,Compound,Potency
1,CC(Cc1ccc(O)cc1)NCC(O)c1cc(O)cc(O)c1 (stereo not drawn),inactive
2,COc1ccc(C[C@H](C)NC[C@@H](O)c2ccc(O)c(NC=O)c2)cc1,active: 16.9 µM
3,C[C@@H](Cc1ccc(O)cc1)NC[C@@H](O)c1cc(O)cc(O)c1,inactive
